Sfp inh: Sfp phosphopantetheinyl transferase inhibition; Biochemical Sfp PPTase activity, qHTS; Potency, µM, most hits filed as inhibitors; hit rate 3.5% among 310,000;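 also: the enzyme is Sfp with the accession as filed and its product quenches rhodamine fluorescence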
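Buffer: 50 mM Hepes-Na pH 7.6, 10 mM MgCl2, 0.01% Nonidet P-40, 0.01% BSA. Enzyme 15 nM, pre-exposed to compound 15 min; substrates then added and fluorescence change tracked over 30 min.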
ALDH1A1 block: blocks purified human ALDH1A1 activity; hit rate 7.3% among 220,000; Purified ALDH1A1, NADH fluorescence, propionaldehyde substrate; Potency, µM (highest dose often 75.3 µM), actives largely listed as inhibitors; active = well fitted inhibition curve with a large enough effect, not every such curve was filed as active; inconclusive = small, poorly fitted or top-dose-only effect, or another doubt; inactive = no such curve, though single readings can be large or run the other way
miR-21 reporter: miR-21 reporter, rising signal; HeLa miR-21 FLuc reporter, luciferase, 48 h; Potency, µM (titrated, usually from 38.3 µM); 340,000 tested, under 10 active; AID 2288; active = well fitted rising curve with a large enough effect; inconclusive = small, poorly fitted or top-dose-only effect; inactive = no such curve, though single readings can be large or run the other way;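 also: miR-21 action dims this reporter so a rising signal means less miR-21 action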
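Luminescence from a firefly luciferase reporter carrying a miR-21 binding site downstream, stably expressed under a CMV promoter in HeLa cells that make miR-21 endogenously, reports miRNA modulation after 48 h compound exposure up to approximately 40uM final.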
JMJD2E inh: JMJD2E (human) inhibition; JMJD2E catalytic domain, FDH-coupled NADH fluorescence (FDH is formaldehyde dehydrogenase); hit rate 1.6% among 230,000; B2RXH2; AID 2147; Potency, µM (titrated, usually from 57.1 µM), actives largely listed as inhibitors; active = well fitted inhibition curve with a large enough effect, not every such curve was filed as active; inconclusive = small, poorly fitted or top-dose-only effect, or another doubt; inactive = no such curve, though single readings can be large or run the other way; also: nearly all actives have a fitted effect of over 50% in size
G9a inh: blocks human histone lysine methyltransferase G9a; G9a H3K9 monomethylation, AlphaScreen, 2 h; Potency, µM (highest dose often 102 µM), most hits filed as inhibitors; hit rate 8.8% among 350,000; AID 504332; also: nearly all actives have a fitted effect of over 75% in size
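Signal arises when biotinylated H3K9 peptide, once monomethylated, bridges streptavidin donor and antibody-captured acceptor beads. Enzyme at 20 nM was preincubated 15 min with test compounds; peptide 500 nM and SAM 20 uM then reacted for 2 h.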
LMNA splice mod: modulators of lamin A splicing. hit rate 0.01% among 200,000. Potency, µM (top dose mostly 46.1 µM), usual class: inhibitors. HeLa LMNA splicing GFP/RFP minigene ratio, 48 h. AID 1487; active = well fitted inhibition curve with a large enough effect in the signal ratio, with a control signal flat, not every such curve was filed as active; inconclusive = small, poorly fitted or top-dose-only effect, or effect the other way, or a change in a side signal; the % refers to the signal ratio
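S3 HeLa cells stably expressing lamin A-EGFP splicing minigene plus DsRed2, 600 cells/well, 48 h compound exposure at 37C. Laser-scanning cytometry; analysed as GFP (500-530 nm)/RFP (575-640 nm) total intensity ratio; 0.5% DMSO vehicle.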
Large screens that a line does not name were inactive. The list is not random: actives were taken first. Their share in the collection is about 13%. Unless noted, calls follow the shape of the dose curve; as a rule, active = well fitted curve in the direction sought with a large enough effect; inconclusive = small, poorly fitted or top-dose-only effect, or another doubt; inactive = no such curve, though single readings can be large; an effect the other way counts as inactive or inconclusive.

Cc1ccc(CC(=O)Nc2nc3c(s2)CCCC3)cc1	G9a inh 50µM, LMNA splice mod inconclusive
COc1ccc(-n2nc(C(=O)Nc3cc(OC)c(OC)c(OC)c3)c(=O)n(C)c2=O)cc1	none (no result: Sfp inh, ALDH1A1 block, JMJD2E inh)
COC1C(O)C(O)C(O)C(O)C1O (stereo not drawn)	none (no result: miR-21 reporter, G9a inh)
O=C(O)C1CCC(CNS(=O)(=O)c2ccccc2)CC1 (stereo not drawn)	none (no result: ALDH1A1 block, JMJD2E inh, LMNA splice mod)
COc1ccc(OCC(=O)Nc2nc3c(s2)CCCC3)cc1	G9a inh 50µM (no result: ALDH1A1 block, JMJD2E inh, LMNA splice mod)
O=C(NCc1cccs1)c1ccc(N2CCCCC2)nc1	ALDH1A1 block 13µM
CCN(CC)CCN(Cc1cc2cc3c(cc2[nH]c1=O)OCCO3)C(=S)NCC1CCCO1 (stereo not drawn)	Sfp inh 5µM, ALDH1A1 block inconclusive (no result: G9a inh, LMNA splice mod)
CCOCCCNC(=S)N(CCO)Cc1cc2cc3c(cc2[nH]c1=O)OCCO3	Sfp inh 56µM (no result: ALDH1A1 block, JMJD2E inh, LMNA splice mod)
COc1ccc(-c2noc(N3CCC(C(=O)N4CCN(c5cccc(OC)c5)CC4)CC3)n2)cc1	none (no result: Sfp inh, ALDH1A1 block, JMJD2E inh)
CCOC(=O)C(=Cc1ccccc1)C(=O)OCC	none (no result: ALDH1A1 block, miR-21 reporter, JMJD2E inh, G9a inh, LMNA splice mod)
CCCCCCC(=O)Cc1cc(OC)c(OC)cc1C=C(C(=O)OCC)C(=O)OCC	JMJD2E inh inconclusive, G9a inh 40µM, LMNA splice mod inconclusive
Cc1nc2cc(-c3cccc(F)c3)nn2c(C)c1CCC(=O)Nc1ccccc1C(N)=O	none (no result: Sfp inh, ALDH1A1 block, JMJD2E inh, LMNA splice mod)
CCCCOc1ccc(C(=O)NNC(=O)C2C3CCC(C3)C2C(=O)O)cc1 (stereo not drawn)	Sfp inh inconclusive (no result: ALDH1A1 block, JMJD2E inh, LMNA splice mod)
CCOc1cccc(C(=O)NNC(=O)C2C3C=CC(C3)C2C(=O)O)c1 (stereo not drawn)	Sfp inh 35µM (no result: ALDH1A1 block, JMJD2E inh, LMNA splice mod)
COc1cccc(C(=O)Nc2ccc(NC(=O)C3C4C=CC(C4)C3C(=O)O)cc2)c1 (stereo not drawn)	none (no result: ALDH1A1 block, JMJD2E inh, G9a inh, LMNA splice mod)
CCCCOc1ccc(C(=O)NNC(=O)C2C3C=CC(C3)C2C(=O)O)cc1 (stereo not drawn)	Sfp inh 45µM (no result: ALDH1A1 block, JMJD2E inh, G9a inh, LMNA splice mod)
Cc1cc2oc(=O)cc(Cn3ncc(Cl)c(Cl)c3=O)c2cc1Cl	ALDH1A1 block 0.079µM (no result: G9a inh, LMNA splice mod)
Cc1cc2oc(=O)cc(CN3CCCCC3C)c2cc1Cl (stereo not drawn)	none (no result: ALDH1A1 block, JMJD2E inh, LMNA splice mod)
CCN1CCN(CC(=O)c2ccc(C)cc2)CC1	Sfp inh 79µM, G9a inh 40µM (no result: ALDH1A1 block, JMJD2E inh, LMNA splice mod)
Cc1ccc(C(=O)CN2CCC(NC(=O)C3CCCCC3)CC2)cc1	ALDH1A1 block 14µM, G9a inh inconclusive
CCN1CCN(CC(=O)Nc2ccc(C(C)=O)cc2)CC1	Sfp inh inconclusive (no result: ALDH1A1 block, JMJD2E inh, LMNA splice mod)
Cc1ccc(NC(=O)CN2CCC(NC(=O)C3CCCCC3)CC2)c(Br)c1	LMNA splice mod inconclusive
CCC1CCCCN1C(=O)CSc1nc2c([nH]c3ccccc32)c(=O)n1-c1cccc(OC)c1 (stereo not drawn)	LMNA splice mod inconclusive (no result: Sfp inh, ALDH1A1 block, JMJD2E inh)
Cn1ccs/c1=N\C(=O)Nc1cccc(C(F)(F)F)c1	none (no result: ALDH1A1 block, JMJD2E inh, LMNA splice mod)
COc1cc2cc(NC(C)=O)cc(NCc3ccccc3)c2cc1OC	G9a inh inconclusive (no result: ALDH1A1 block, JMJD2E inh, LMNA splice mod)
CCCCNc1cc(NC(C)=O)cc2cc(OC)c(OC)cc12	G9a inh 45µM, LMNA splice mod inconclusive
Cc1cccc(C)c1NC(=O)C(=O)NCC(c1cccnc1)N1CCc2ccccc21 (stereo not drawn)	none (no result: Sfp inh, ALDH1A1 block, JMJD2E inh)
CC12CN3CC(C)(CN(C1)C3c1c[nH]c3ccccc13)C2=O (stereo not drawn)	none
CC1(C)CC(=O)C(c2c[nH]c3ccccc23)C(=O)C1	Sfp inh 79µM, ALDH1A1 block 20µM (no result: G9a inh, LMNA splice mod)
NC(=O)N/N=C/c1c(Sc2nnnn2-c2ccccc2)nc2ccccn2c1=O	ALDH1A1 block inconclusive, JMJD2E inh inconclusive, G9a inh 50µM (no result: LMNA splice mod)
CCOC(=O)c1c(NC(=O)Cc2cccs2)sc(C(=O)N2CCCCC2)c1C	ALDH1A1 block 2.5µM
CCOC(=O)c1sc(NC(=O)CCN2CCC(C)CC2)c(C(=O)OCC)c1C	ALDH1A1 block 2.5µM, LMNA splice mod inconclusive
CCOC(=O)c1sc(NC(=O)CCN2CCN(CC)CC2)c(C(=O)OCC)c1C	ALDH1A1 block 10µM, LMNA splice mod inconclusive
CCOC(=O)c1sc(NC(=O)CN(CC(C)C)CC(C)C)c(C(=O)OCC)c1C	ALDH1A1 block 22µM
CCOC(=O)c1sc(NC(=O)CCN2C(=O)c3ccccc3C2=O)c(C(=O)OCC)c1C	ALDH1A1 block inconclusive, G9a inh inconclusive
